Measurements published in patent publication US20220357341A1, “COMPOSITIONS AND METHODS FOR AN IL-17 TARGET ENGAGEMENT ASSAY WITH SMALL MOLECULE MODULATORS” (Janssen Pharmaceutica NV, priority 2019, published 2022).

By UniProt entry, the sequences of proteins in these tests, tags left out. Residues count along the entry.
UniProt Q16552, 24-155: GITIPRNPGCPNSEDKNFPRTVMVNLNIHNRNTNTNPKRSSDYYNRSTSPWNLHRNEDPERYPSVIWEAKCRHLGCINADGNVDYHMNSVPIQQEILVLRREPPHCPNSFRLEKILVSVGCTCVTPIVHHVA

Target: T1, IL-17 (Homo sapiens, UniProt Q16552)
T1 construct: serial dilutions of recombinant IL-17 were prepared in diluent
Test: Free IL-17 ELISA: capture antibody of DuoSet ELISA kit DY317 paired with mAb4538 as detection agent, IL-17 titration with 10 μM SM modulator
Type: binding
Details: capture antibody of DuoSet ELISA kit DY317, detection agent mAb4538 500 ng/ml, FIGS. 2A-2F
Experimental: Two-fold and 8-point serial dilutions of recombinant IL-17 were prepared in diluent starting from 1 ng/ml, in duplicate. For testing differentiating property on SM modulators, IL-17 calibration samples were prepared in the presence of 10 μM SM modulators or vehicle control containing 0.1% DMSO. IL-17 samples were incubated for 1 hour at 37° C.
High binding 96-well plates were coated with 100 μL/well of 4 μg/ml capture antibody in PBS overnight at room temperature. Coated plates were washed 6×400 μL/well on plate washer (Zoom HT Microplate Washer) and blocked with 300 μL/well blocker (1% BSA in PBS) at room temperature for 2.5 hours followed by 6×400 μL/well on plate washer.
Samples were prepared by incubating titrated IL-17 with SM modulators at final concentration of 10 μM. IL-17 levels were measured in ELISA assay by adding 95 μL/well samples to the capture antibody coated plates. […] Reaction was then stopped by addition of 50 μL/well of stop solution and plates were measured in plate reader at 450-540 nm.
Optical density (OD) readout from plate reader (Molecular Devices Spectra Max 340fPC) were analyzed with Softmax Pro6.3 and GraphPad Prism, and plotted as dose response curve of OD values vs IL-17 concentrations.

B1: mAb4538: IL-17 antibody from Janssen Biotech, Inc., disclosed in U.S. Pat. No. 8,519,107; LC SEQ ID NO: 9, HC SEQ ID NO: 10 (antibody)
heavy: QVQLQQSGPGLVKPSQTLSLTCAISGDSVSSSSAAWGWIRQSPSRGLEWLGRISYRSKWYNDYAVSVKSRITINPDTSKNQFSLQLNSVTPEDTAVYYCAREVDSMYYSYFDIWGQGTLVTVSSASTKGPSVFPLAPSSKSTSGGTAALGCLVKDYFPEPVTVSWNSGALTSGVHTFPAVLQSSGLYSLSSVVTVPSSSLGTQTYICNVNHKPSNTKVDKKV[sequence of human IgG1 Fc not given]
light: EIVLTQSPATLSLSPGERATLSCRASQNVWAFYLAWYQQKPGQAPRLLIYGASNRATGIPARFSGSGSGTDFTLTISSLEPEDFAVYYCQQYRSTLSLTFGQGTKVEIKGQPKAAPSVTLFPPSSEELQANKATLVCLISDFYPGAVTVAWKADSSPVKAGVETTTPSKQSNNKYAASSYLSLTPEQWKSHRSYSCQVTHEGSTVEKTVAPTECS
modifications: HC of mAb4538 and mAb732; LC of mAb4538 and mAb3584
B1 was tested, and the “detection of free IL-17 versus SM modulator-bound IL-17 (OD vs IL-17 concentration)” value was “only free IL-17 (that is not SM modulator bound) could be detected”.
